# Measured values as given in patent publication US20100256086A1, “NON-HYDROLYZABLE NUCLEOSIDE DI- OR TRI-PHOSPHATE DERIVATIVES AND USES THEREOF” (priority 2007, published 2010).
# Test system: alkaline phosphatase
substance,measurement,setting,value
2-MeS-ATP-α-B [Compound 1],fraction remaining in alkaline phosphatase,after 12 min at 37° C.,40%
same,amount detectable in alkaline phosphatase,"after 100 min, HPLC-MS",only traces
